Sequences of proteins named here, by UniProt entry; tags and fusion partners are left off.
UniProt P10415, whole entry: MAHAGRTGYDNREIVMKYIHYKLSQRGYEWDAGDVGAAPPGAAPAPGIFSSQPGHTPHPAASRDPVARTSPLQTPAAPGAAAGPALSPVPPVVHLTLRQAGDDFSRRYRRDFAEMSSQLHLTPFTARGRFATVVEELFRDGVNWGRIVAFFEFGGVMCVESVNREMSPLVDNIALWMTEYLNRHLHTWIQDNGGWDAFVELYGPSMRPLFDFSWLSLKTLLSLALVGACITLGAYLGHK

In PMC11694131 (Haematologica, 2024):

Biological target: BCL2 (Homo sapiens, UniProt P10415)
Assay: biochemical
Format: binding

Work on `CC1(C)CCC(c2ccc(Cl)cc2)=C(CN2CCN(c3ccc(C(=O)NS(=O)(=O)c4ccc(N[C@H](CCN5CCOCC5)CSc5ccccc5)c(S(=O)(=O)C(F)(F)F)c4)cc3)CC2)C1` [navitoclax] yielded an IC50 of 0.75 nM.
